Source: patent US20250171459A1, “2-METHYL-4',5'-DIHYDROSPIRO[PIPERIDINE-4,7'-THIENO[2,3-C]PYRAN] DERIVATIVES AS INHIBITORS OF APOL1 AND METHODS OF USING SAME” (Vertex Pharmaceuticals Incorporated, priority 2022, published 2025)

Protein sequences, listed by entry. Tags and fused reporters are not part of them.
UniProt O14791, whole entry S342G/I384M: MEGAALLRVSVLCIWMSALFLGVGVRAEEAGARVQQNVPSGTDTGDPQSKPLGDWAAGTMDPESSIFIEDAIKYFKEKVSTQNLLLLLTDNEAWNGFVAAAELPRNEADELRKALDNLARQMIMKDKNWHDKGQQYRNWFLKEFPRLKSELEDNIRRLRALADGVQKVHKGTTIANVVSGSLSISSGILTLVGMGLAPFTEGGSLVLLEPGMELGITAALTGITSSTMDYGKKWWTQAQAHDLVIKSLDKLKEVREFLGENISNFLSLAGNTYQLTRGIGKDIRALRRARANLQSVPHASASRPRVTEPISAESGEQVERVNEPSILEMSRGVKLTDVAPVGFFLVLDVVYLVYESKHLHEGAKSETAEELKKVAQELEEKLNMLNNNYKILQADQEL

Molecular target: APOL1 (Homo sapiens, UniProt O14791)
Test: MultiTox-Fluor Multiplex Cytotoxicity Assay in tet-inducible APOL1 T-REx-HEK293 cells (cell rescue, ratio of dead to live cells)
Settings: read-out: IP50 (i.e., IC50 for cell proliferation); tet-inducible transgenic APOL1 T-REx-HEK293 cell lines, 50 ng/mL tet, 24 hours

SMILES | IC50 [nM]
C[C@H]1C[C@@]2(CCN1Cc1cnn(CCS(C)(=O)=O)c1)OCC(O)(C(F)(F)F)c1cc(Cl)sc12 (stereo partly drawn) [Compound 852, (2′S,7R)-2-chloro-2′-methyl-1′-[[1-(2-methylsulfonylethyl)pyrazol-4-yl]methyl]-4-(trifluoromethyl)spiro[5H-thieno[2,3-c]pyran-7,4′-piperidine]-4-ol] | < 100
CCc1cc2c(s1)CCOC21CCN(Cc2cnn(C)c2)CC1C (stereo not drawn) | 500 to 1000
CC1COC2(CCN(Cc3cnn(C)c3)CC2)c2cc(Cl)sc21 (single isomer, unassigned) | 100 to 500
